Results as given in US20230381183A1, “USE OF FOLIC ACID AND FOLATE MODIFICATION IN INDUCING B-CELL IMMUNE TOLERANCE AND TARGETING mIgM-POSITIVELY-EXPRESSED B-CELL LYMPHOMA” (FUDAN UNIVERSITY, priority 2020, published 2023).

Tested on: antibodies against trastuzumab
Experiment: Serum antibodies against trastuzumab by ELISA
Type: in vivo, BALB/c female mice
Details: 60 μg antibody/mouse tail vein days 0, 7, 14; serum day 21
Procedure: The BALB/c female mice (6 weeks old) were randomly divided into trastuzumab group, folate-trastuzumab group (obtained according to Example 2), FA gavage+trastuzumab group and physiological saline group, with 5 mice in each group. For the trastuzumab group and the folate-trastuzumab group, a dose of 60 μg antibody/mouse was administrated via tail vein injection on days 0, 7 and 14. For the FA gavage+trastuzumab group, each mouse was administered by gavage with 3 mg free folic acid per day for two weeks, and trastuzumab was administered via tail vein injection at a dose of 60 μg antibody/mouse on days 0, 7 and 14. For the physiological saline group, the mice were injected with physiological saline via tail vein on days 0, 7 and 14. One week after the last administration (day 21), the serum was collected from the mice, and was measured by ELISA for the antibodies against trastuzumab.

## folate-trastuzumab: trastuzumab coupled with folate-PEG400-Mal
  level of antibodies against trastuzumab: significantly lower than that in the trastuzumab group
